{
  "source": "patent US6020328A",
  "about": "“20-keto-11β-arylsteroids and their derivatives having agonist or antagonist hormonal properties” (Research Triangle Institute, priority 1998, dated 2000)",
  "key": {"rabbits [1]": {"test_system": "rabbits", "experiment": "McGinty test (agonist, test compound alone)", "type": "in vivo, rabbit"}, "rabbits [2]": {"test_system": "rabbits", "experiment": "anti-McGinty test (antagonist, test compound plus progesterone)", "type": "in vivo, rabbit"}},
  "data": [
    {"smiles": "CC(=O)[C@@]1(OC(=O)Cc2ccccc2)CC[C@H]2[C@@H]3CCC4=CC(=O)CCC4=C3[C@@H](c3ccc(N(C)C)cc3)C[C@@]21C", "note": "[I 4-Me2 N H O H O--CO--CH2 C6 H5 H, 11β-[4-(N,N-Dimethylamino)phenyl]-17α-phenylacetoxy-19-norpregna-4,9-diene-3,20-dione]", "values": [
      {"measurement": "McPhail Index, McGinty Assay (Agonist)", "setting": "rabbits [1]; dose 0.3 micrograms", "value": "0 +/- 0"},
      {"measurement": "McPhail Index, McGinty Assay (Agonist)", "setting": "rabbits [1]; dose 3 micrograms", "value": "0.1 +/- 0.1"},
      {"measurement": "McPhail Index, McGinty Assay (Agonist)", "setting": "rabbits [1]; dose 30 micrograms", "value": "0 +/- 0"},
      {"measurement": "McPhail Index, McGinty Assay (Antagonist)", "setting": "rabbits [2]; dose 0.3 micrograms", "value": "2.3 +/- 0.3"},
      {"measurement": "McPhail Index, McGinty Assay (Antagonist)", "setting": "rabbits [2]; dose 3 micrograms", "value": "3.1 +/- 0.1"},
      {"measurement": "McPhail Index, McGinty Assay (Antagonist)", "setting": "rabbits [2]; dose 30 micrograms", "value": "1.2 +/- 0.2"}
    ]}
  ]
}
